22 compounds from PubChem BioAssay (Tox21) can be followed below.

Several values for one entry are separate records, joined by “and”; a condition that tells them apart may be missing. Where a call stands in place of a potency, no number is given. Equal entries are not always repeated. Only a part is listed here, and it is no random draw. Records with an inconclusive call do not appear. Some structures have more than one record in an assay (separate samples or runs), and their calls can disagree. Activity calls are given as the source filed them. Calls follow the shape of the dose curve; as a rule, active = well fitted activation curve with a large enough effect in the repeat runs; inconclusive = weak or mixed curves; inactive = flat fitted curve, though single readings scatter.
Potency is read from the fitted curve at half-maximal effect.

The assay can be described thus: A CellTox Green Cytotoxicity Assay to monitor cytotoxicity in HepG2 cells - 24 hour (AID 1224878). Also: nearly all actives have a fitted effect of over 45% in size. Conditions: CellTox Green fluorescence; series mostly up to 76.8 µM. An excerpt: National Center for Advancing Translational Sciences [NCATS]
NIH Chemical Genomics Center [NCGC]
U.S. Environmental Protection Agency [EPA]
National Institutes of Environmental Health Sciences [NIEHS]
National Toxicology Program [NTP]
Cell-based models are critical for drug discovery. Determining the natural cytotoxic effects resulting from test compounds is an essential research activity. A CellTox Green Cytotoxicity Assay to monitor cytotoxicity in real time of continues cell culture during 40 hours of the compound treatment was used to screen Tox21 10K library compounds in HepG2 cells. CellTox Green Cytotoxicity Assay is a nonlytic, homogeneous, biofluorescent method to measure cytotoxicity in cell culture after experimental manipulation. The assay system uses a proprietary asymmetric cyanine dye that is excluded from viable cells but preferentially stains the dead cell's DNA. […] Viable cells produce no appreciable increases in fluorescence. Therefore, the fluorescence signal produced by the binding interaction with dead cell DNA is proportional to cytotoxicity.
The mixture of HepG2 cell suspension and reagents were dispensed at 600cells/6 ul/well in 1536-well tissue culture treated black solid bottom plates using a Multidrop dispenser. After the assay plates were incubated at a 37 C/5% CO2 incubator for 5 hours, 23 nL of compounds dissolved in DMSO, positive and negative controls was transferred to the assay plate by a pintool work station. The plates were incubated at 37 C for 40 hours. The fluorescence intensity were measured at 0h, 8h, 16h, 24h, 32h and 40h time points using ViewLux plate reader during compound treatment.
Take `COc1ccc([N+](=O)[O-])cc1[N+](=O)[O-]`: the Potency result was “inactive”. Under `CC(C)N(CCO)C(C)C` stands “inactive”. On to `Cc1c([N+](=O)[O-])cccc1[N+](=O)[O-]`, for which the Potency result is “inactive”. Take `O=[N+]([O-])OCC(CO[N+](=O)[O-])(CO[N+](=O)[O-])CO[N+](=O)[O-]`: the Potency result was “inactive”. On to `COP(C)(=O)OC`, for which the Potency entry was “inactive”. For the compound `Cc1ccc([N+](=O)[O-])c([N+](=O)[O-])c1`, the Potency result was “inactive and active: 19.5 µM”. `Cc1cccc([N+](=O)[O-])c1[N+](=O)[O-]`: the Potency is active: 26 µM. For the compound `Nc1cc([N+](=O)[O-])cc([N+](=O)[O-])c1O`, the Potency entry was “inactive”. With `CCOP(=O)(CC)Oc1ccc([N+](=O)[O-])cc1` (configuration not stated), the Potency entry was “inactive”. With `CP(=O)(O)OCCC[Si](O)(O)O`, the Potency entry is “inactive”.

On to `N=C(N)N[N+](=O)[O-]`, for which the Potency entry was “inactive”. Under `CCOP(=O)(CC)OCC` stands “inactive”; under `[NH4+].[O-][Cl+3]([O-])([O-])[O-]`, “inactive”; under `Cc1ccc([N+](=O)[O-])cc1[N+](=O)[O-]`, “inactive”. Under `CN(C)CCCl` stands “inactive”; under `O=[N+]([O-])[O-].[NH4+]`, “inactive and active: 27.5 µM”; under `OCCSCCO`, “inactive”. On to `C/C1=C2N=C(/C=C3N=C(/C(C)=C4\[N-][C@@](C)([C@@H]5N=C1[C@](C)(CCC(=O)NC[C@@H](C)OP(=O)([O-])O[C@H]1[C@@H](O)[C@@H](n6cnc7cc(C)c(C)cc76)O[C@@H]1CO)[C@H]5CC(N)=O)[C@@](C)(CC(N)=O)[C@@H]4CCC(N)=O)[C@@](C)(CC(N)=O)[C@@H]\3CCC(N)=O)C(C)(C)[C@@H]/2CCC(N)=O.[C-]#N.[Co+3]`, for which the Potency entry was “inactive”.

On to `CCN(CC)CCCl`, for which the Potency entry is “inactive”. Regarding `N#CBr`, the Potency result was “inactive”. For the compound `CC(C)OP(C)(=O)OC(C)C`, the Potency result is “inactive”. As to `O=[N+]([O-])c1cccc([N+](=O)[O-])c1`, the Potency was active: 22.8 µM.
